# Biological target: T1, human recombinant DHFR (Homo sapiens, UniProt P00374)
# T1 sequence (P00374 1-187): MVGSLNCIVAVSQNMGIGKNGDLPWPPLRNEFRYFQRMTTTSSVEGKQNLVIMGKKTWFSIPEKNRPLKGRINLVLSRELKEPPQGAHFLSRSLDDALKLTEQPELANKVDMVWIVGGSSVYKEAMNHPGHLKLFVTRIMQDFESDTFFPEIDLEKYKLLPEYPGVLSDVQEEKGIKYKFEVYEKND
# Experiment: DHFR inhibition in a cell-free assay
# Assay type: biochemical
structure (smiles),measurement,value
"Nc1nc2[nH]cc(CCc3ccc(C(=O)N[C@@H](CCC(=O)O)C(=O)O)cc3)c2c(=O)[nH]1 [Alimta, pemetrexed]",Ki,> 0.2 µM
